# In ChEMBL document CHEMBL2218924, “A broad activity screen in support of a chemogenomic map for kinase signalling research and drug discovery” (Biochem J, 2013):
# Chains of the proteins cited; added tags and fusions are not shown. Lines headed by an entry give the natural chain unless they say otherwise; changes in a name come on top.
# UniProt P42684, whole entry: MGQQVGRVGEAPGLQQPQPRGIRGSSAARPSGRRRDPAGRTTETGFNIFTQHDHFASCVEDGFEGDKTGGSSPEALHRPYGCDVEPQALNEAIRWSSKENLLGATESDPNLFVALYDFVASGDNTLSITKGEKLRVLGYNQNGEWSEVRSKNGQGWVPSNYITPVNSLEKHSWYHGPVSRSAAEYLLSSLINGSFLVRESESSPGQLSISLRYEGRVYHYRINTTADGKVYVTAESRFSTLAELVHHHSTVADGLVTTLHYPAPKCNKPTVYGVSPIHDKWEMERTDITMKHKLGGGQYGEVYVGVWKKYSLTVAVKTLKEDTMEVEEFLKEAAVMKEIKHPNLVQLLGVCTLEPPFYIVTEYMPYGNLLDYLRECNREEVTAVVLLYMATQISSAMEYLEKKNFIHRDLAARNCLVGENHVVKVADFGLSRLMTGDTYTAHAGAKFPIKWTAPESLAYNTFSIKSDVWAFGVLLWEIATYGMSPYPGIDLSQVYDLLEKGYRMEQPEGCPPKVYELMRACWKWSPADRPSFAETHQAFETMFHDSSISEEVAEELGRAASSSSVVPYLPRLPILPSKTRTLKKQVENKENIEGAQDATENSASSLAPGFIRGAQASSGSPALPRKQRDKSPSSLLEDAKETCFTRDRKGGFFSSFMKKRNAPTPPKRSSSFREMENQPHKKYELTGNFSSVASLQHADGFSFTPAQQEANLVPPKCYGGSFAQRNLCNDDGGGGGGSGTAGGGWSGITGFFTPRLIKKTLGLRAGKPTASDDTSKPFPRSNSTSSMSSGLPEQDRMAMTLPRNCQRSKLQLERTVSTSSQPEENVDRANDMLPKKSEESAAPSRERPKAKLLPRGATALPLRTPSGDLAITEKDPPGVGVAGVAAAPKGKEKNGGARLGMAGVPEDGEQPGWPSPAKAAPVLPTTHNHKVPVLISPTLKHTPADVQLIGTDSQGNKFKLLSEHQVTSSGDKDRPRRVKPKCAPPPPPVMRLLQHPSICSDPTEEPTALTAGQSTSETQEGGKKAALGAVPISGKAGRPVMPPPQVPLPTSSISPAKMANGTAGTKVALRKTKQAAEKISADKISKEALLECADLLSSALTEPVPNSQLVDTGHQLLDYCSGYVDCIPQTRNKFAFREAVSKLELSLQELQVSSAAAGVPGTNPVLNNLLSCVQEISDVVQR
# UniProt Q8N568: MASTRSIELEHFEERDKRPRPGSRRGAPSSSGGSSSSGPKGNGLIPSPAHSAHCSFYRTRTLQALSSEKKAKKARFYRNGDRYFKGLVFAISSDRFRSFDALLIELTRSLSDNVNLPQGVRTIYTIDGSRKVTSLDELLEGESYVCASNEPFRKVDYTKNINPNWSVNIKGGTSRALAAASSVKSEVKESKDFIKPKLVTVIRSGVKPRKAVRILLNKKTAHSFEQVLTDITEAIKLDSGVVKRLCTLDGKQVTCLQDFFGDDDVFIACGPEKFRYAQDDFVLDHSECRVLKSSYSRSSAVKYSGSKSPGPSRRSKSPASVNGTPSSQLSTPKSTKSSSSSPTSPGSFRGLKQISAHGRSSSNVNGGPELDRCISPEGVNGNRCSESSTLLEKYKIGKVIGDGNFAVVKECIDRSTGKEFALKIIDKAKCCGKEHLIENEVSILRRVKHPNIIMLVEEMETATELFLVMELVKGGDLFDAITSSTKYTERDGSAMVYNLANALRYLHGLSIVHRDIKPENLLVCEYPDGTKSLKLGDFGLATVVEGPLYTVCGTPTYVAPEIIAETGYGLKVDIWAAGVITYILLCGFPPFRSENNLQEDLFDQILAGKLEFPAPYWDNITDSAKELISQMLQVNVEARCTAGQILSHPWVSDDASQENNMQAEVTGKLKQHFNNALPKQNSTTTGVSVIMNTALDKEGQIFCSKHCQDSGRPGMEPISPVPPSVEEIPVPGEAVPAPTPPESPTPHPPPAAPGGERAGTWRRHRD
# UniProt Q12851: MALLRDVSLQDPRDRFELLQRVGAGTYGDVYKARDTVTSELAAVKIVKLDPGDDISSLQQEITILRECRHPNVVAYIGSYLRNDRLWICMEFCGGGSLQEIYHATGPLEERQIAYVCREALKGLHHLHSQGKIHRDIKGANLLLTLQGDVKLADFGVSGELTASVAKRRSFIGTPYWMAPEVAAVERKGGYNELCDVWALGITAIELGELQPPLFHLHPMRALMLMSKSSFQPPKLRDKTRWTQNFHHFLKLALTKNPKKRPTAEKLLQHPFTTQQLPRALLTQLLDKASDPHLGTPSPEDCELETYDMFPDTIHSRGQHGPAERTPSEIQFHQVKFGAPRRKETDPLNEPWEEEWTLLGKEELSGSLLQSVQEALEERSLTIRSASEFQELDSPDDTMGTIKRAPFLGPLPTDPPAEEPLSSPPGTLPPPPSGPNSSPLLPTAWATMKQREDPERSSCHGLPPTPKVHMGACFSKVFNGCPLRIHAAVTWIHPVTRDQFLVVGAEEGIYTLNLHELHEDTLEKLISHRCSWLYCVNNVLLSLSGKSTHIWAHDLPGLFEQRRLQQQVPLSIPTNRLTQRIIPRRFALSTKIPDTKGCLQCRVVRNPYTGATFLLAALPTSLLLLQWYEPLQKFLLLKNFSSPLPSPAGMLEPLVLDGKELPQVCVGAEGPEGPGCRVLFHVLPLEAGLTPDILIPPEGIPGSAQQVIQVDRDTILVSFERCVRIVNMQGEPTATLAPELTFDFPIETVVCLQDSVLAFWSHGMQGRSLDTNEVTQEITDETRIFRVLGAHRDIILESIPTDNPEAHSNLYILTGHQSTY
# UniProt Q86Z02: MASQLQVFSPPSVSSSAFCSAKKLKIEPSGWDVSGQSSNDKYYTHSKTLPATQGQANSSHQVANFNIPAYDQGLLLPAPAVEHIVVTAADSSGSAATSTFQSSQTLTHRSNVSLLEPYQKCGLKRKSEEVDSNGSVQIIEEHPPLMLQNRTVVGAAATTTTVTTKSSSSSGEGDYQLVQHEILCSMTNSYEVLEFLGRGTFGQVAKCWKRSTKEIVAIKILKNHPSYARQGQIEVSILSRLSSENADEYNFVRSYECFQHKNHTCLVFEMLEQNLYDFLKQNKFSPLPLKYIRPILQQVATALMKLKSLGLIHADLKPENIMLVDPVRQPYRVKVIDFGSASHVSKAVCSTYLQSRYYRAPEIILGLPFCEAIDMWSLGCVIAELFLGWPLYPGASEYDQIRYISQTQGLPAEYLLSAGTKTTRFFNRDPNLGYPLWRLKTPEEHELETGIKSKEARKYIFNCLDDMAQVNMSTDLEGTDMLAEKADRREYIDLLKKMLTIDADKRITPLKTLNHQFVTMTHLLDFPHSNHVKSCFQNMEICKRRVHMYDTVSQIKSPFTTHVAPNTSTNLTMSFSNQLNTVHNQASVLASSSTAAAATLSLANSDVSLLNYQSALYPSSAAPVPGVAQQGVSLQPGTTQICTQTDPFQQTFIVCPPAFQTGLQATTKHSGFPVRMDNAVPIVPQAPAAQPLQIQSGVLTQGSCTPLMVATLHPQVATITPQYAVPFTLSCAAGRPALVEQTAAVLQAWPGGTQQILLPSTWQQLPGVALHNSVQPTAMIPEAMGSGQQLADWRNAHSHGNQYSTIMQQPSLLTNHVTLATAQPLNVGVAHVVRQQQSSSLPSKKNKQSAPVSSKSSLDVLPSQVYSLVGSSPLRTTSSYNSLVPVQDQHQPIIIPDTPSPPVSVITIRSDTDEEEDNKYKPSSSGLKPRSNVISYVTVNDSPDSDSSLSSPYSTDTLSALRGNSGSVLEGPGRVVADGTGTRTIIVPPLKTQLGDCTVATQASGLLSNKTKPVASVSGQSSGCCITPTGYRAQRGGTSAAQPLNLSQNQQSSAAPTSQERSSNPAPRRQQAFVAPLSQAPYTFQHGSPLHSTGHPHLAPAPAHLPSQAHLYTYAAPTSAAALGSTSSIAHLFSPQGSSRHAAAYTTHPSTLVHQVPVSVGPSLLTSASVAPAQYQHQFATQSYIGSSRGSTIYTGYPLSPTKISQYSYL
# UniProt Q9H2X6: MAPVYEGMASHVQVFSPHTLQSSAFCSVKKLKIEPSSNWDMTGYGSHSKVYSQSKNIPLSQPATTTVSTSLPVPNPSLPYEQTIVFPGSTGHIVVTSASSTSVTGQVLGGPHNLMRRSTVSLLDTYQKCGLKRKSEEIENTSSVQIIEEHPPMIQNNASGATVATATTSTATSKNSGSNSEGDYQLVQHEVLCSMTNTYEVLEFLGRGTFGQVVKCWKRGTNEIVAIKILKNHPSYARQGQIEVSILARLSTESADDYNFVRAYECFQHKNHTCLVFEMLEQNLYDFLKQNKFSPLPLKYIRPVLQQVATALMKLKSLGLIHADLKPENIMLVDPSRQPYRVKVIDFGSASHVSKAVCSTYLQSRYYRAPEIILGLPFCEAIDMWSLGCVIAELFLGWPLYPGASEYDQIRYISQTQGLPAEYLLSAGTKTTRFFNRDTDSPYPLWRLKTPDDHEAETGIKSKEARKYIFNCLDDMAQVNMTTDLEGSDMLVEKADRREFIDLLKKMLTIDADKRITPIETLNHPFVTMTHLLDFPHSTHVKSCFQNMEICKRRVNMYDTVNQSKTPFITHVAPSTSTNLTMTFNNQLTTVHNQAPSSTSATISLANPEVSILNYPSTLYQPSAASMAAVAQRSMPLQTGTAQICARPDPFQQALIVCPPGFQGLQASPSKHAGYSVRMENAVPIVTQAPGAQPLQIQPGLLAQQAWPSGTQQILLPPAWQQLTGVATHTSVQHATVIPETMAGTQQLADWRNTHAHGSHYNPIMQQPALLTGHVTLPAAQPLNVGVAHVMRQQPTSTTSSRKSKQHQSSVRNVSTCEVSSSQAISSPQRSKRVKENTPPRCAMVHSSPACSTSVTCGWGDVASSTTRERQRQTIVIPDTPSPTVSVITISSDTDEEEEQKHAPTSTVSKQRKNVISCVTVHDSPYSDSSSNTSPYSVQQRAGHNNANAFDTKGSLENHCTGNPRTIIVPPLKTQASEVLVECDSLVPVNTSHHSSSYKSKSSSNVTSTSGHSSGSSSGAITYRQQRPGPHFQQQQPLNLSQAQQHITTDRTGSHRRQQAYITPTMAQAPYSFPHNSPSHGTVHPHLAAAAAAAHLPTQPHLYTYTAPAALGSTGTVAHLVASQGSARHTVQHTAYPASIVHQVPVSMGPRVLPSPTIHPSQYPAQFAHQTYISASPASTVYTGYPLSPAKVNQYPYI
# UniProt Q9BZL6: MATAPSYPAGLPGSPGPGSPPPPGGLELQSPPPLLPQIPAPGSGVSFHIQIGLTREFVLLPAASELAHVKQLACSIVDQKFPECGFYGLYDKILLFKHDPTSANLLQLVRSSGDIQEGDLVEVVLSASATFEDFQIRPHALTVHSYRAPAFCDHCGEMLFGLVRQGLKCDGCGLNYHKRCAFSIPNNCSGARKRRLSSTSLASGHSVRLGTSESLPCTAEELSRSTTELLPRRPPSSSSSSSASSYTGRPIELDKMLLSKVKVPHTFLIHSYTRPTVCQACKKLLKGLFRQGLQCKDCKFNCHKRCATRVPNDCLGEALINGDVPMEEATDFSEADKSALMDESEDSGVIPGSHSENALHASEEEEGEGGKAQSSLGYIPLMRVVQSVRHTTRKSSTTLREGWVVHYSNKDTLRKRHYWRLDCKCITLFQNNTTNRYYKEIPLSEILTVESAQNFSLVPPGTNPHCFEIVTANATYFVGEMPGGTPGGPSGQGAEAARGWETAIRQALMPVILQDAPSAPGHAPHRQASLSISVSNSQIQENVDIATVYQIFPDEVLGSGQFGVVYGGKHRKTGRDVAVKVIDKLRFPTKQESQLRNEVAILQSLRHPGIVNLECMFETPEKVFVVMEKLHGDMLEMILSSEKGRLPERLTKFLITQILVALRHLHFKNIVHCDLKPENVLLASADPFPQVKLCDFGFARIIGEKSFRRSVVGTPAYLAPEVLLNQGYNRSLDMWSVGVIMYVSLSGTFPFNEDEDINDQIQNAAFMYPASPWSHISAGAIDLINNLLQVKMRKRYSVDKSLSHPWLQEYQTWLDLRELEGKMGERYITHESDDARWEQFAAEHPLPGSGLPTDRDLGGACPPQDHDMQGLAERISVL
# For some assays here: Most of the strong results are listed elsewhere, so they are rarer here than in the full data. The rule behind the calls is not given here. This is a selection; strong and weak results do not stand in their true shares.
# How the values were obtained:
# [1] = target: Tyrosine-protein kinase ABL2 (Homo sapiens) (UniProt P42684); conditions: at 1 µM
# [2] = target: Aurora kinase A (Homo sapiens) (UniProt O14965); conditions: at 10 µM
# [3] = target: Aurora kinase B (Homo sapiens) (UniProt Q96GD4); conditions: at 1 µM
# [4] = target: Aurora kinase C (Homo sapiens) (UniProt Q9UQB9); conditions: at 1 µM
# [5] = target: Protein-tyrosine kinase 6 (Homo sapiens) (UniProt Q13882); conditions: at 10 µM
# [6] = target: Tyrosine-protein kinase BTK (Homo sapiens) (UniProt Q06187); conditions: at 1 µM
# [7] = target: Tyrosine-protein kinase BTK (Homo sapiens) (UniProt Q06187); conditions: at 10 µM
# [8] = target: Serine/threonine-protein kinase BRSK1 (Homo sapiens) (UniProt Q8TDC3); conditions: at 1 µM
# [9] = target: Serine/threonine-protein kinase BRSK1 (Homo sapiens) (UniProt Q8TDC3); conditions: at 10 µM
# [10] = target: CDK3/cyclin E (Homo sapiens) (UniProt P24864+O96020+Q00526); conditions: at 10 µM
# [11] = target: T1, Cyclin-dependent kinase 5/CDK5 activator 1 (Homo sapiens) (UniProt Q00535+Q15078); conditions: at 1 µM
# [12] = target: T1, Cyclin-dependent kinase 5/CDK5 activator 1 (Homo sapiens); conditions: at 10 µM
# [13] = target: T1, Cyclin-dependent kinase 5/CDK5 activator 1 (Homo sapiens); conditions: at 1 µM; remark: listed apart in the source
# [14] = target: T1, Cyclin-dependent kinase 5/CDK5 activator 1 (Homo sapiens); conditions: at 10 µM; remark: listed apart in the source
# [15] = target: Cyclin-dependent kinase 7/ cyclin H (Homo sapiens) (UniProt P51946+P50613); conditions: at 1 µM
# [16] = target: Serine/threonine-protein kinase Chk1 (Homo sapiens) (UniProt O14757); conditions: at 1 µM
# [17] = target: Serine/threonine-protein kinase Chk2 (Homo sapiens) (UniProt O96017); conditions: at 1 µM
# [18] = target: Serine/threonine-protein kinase Chk2 (Homo sapiens) (UniProt O96017); conditions: at 10 µM
# [19] = target: Casein kinase I isoform delta (Homo sapiens) (UniProt P48730); conditions: at 1 µM
# [20] = target: Casein kinase I isoform delta (Homo sapiens) (UniProt P48730); conditions: at 10 µM
# [21] = target: Calcium/calmodulin-dependent protein kinase type II subunit beta (Homo sapiens) (UniProt Q13554); conditions: at 10 µM
# [22] = target: Calcium/calmodulin-dependent protein kinase type II subunit gamma (Homo sapiens) (UniProt Q13555); conditions: at 1 µM
# [23] = target: Death-associated protein kinase 1 (Homo sapiens) (UniProt P53355); conditions: at 1 µM
# [24] = target: Death-associated protein kinase 1 (Homo sapiens) (UniProt P53355); conditions: at 10 µM
# [25] = target: Serine/threonine-protein kinase DCLK2 (Homo sapiens) (UniProt Q8N568); conditions: at 10 µM
# [26] = target: Discoidin domain-containing receptor 2 (Homo sapiens) (UniProt Q16832); conditions: at 10 µM
# [27] = target: Ephrin type-A receptor 3 (Homo sapiens) (UniProt P29320); conditions: at 10 µM
# [28] = target: Ephrin type-A receptor 7 (Homo sapiens) (UniProt Q15375); conditions: at 1 µM
# [29] = target: Ephrin type-A receptor 8 (Homo sapiens) (UniProt P29322); conditions: at 10 µM
# [30] = target: Ephrin type-B receptor 1 (Homo sapiens) (UniProt P54762); conditions: at 1 µM
# [31] = target: Ephrin type-B receptor 2 (Homo sapiens) (UniProt P29323); conditions: at 1 µM
# [32] = target: Receptor tyrosine-protein kinase erbB-4 (Homo sapiens) (UniProt Q15303); conditions: at 10 µM
# [33] = target: Focal adhesion kinase 1 (Homo sapiens) (UniProt Q05397); conditions: at 1 µM
# [34] = target: Focal adhesion kinase 1 (Homo sapiens) (UniProt Q05397); conditions: at 10 µM
# [35] = target: Tyrosine-protein kinase Fes/Fps (Homo sapiens) (UniProt P07332); conditions: at 10 µM
# [36] = target: Vascular endothelial growth factor receptor 1 (Homo sapiens) (UniProt P17948); conditions: at 10 µM
# [37] = target: Vascular endothelial growth factor receptor 3 (Homo sapiens) (UniProt P35916); conditions: at 1 µM
# [38] = target: Tyrosine-protein kinase Fyn (Homo sapiens) (UniProt P06241); conditions: at 1 µM
# [39] = target: Mitogen-activated protein kinase kinase kinase kinase 2 (Homo sapiens) (UniProt Q12851); conditions: at 10 µM
# [40] = target: G protein-coupled receptor kinase 6 (Homo sapiens) (UniProt P43250); conditions: at 10 µM
# [41] = target: Rhodopsin kinase GRK7 (Homo sapiens) (UniProt Q8WTQ7); conditions: at 10 µM
# [42] = target: Homeodomain-interacting protein kinase 1 (Homo sapiens) (UniProt Q86Z02); conditions: at 1 µM
# [43] = target: Homeodomain-interacting protein kinase 2 (Homo sapiens) (UniProt Q9H2X6); conditions: at 1 µM
# [44] = target: Homeodomain-interacting protein kinase 2 (Homo sapiens) (UniProt Q9H2X6); conditions: at 10 µM
# [45] = target: Homeodomain-interacting protein kinase 3 (Homo sapiens) (UniProt Q9H422); conditions: at 1 µM
# [46] = target: Homeodomain-interacting protein kinase 3 (Homo sapiens) (UniProt Q9H422); conditions: at 10 µM
# [47] = target: Serine/threonine-protein kinase haspin (Homo sapiens) (UniProt Q8TF76); conditions: at 1 µM
# [48] = target: Tyrosine-protein kinase HCK (Homo sapiens) (UniProt P08631); conditions: at 1 µM
# [49] = target: Protein kinase C theta type (Homo sapiens) (UniProt Q04759); conditions: at 10 µM
# [50] = target: Protein kinase C iota type (Homo sapiens) (UniProt P41743); conditions: at 1 µM
# [51] = target: Serine/threonine-protein kinase D2 (Homo sapiens) (UniProt Q9BZL6); conditions: at 1 µM
# [52] = target: T2, cGMP-dependent protein kinase 1 (Homo sapiens) (UniProt Q13976); conditions: at 10 µM
# T2 sequence (whole entry): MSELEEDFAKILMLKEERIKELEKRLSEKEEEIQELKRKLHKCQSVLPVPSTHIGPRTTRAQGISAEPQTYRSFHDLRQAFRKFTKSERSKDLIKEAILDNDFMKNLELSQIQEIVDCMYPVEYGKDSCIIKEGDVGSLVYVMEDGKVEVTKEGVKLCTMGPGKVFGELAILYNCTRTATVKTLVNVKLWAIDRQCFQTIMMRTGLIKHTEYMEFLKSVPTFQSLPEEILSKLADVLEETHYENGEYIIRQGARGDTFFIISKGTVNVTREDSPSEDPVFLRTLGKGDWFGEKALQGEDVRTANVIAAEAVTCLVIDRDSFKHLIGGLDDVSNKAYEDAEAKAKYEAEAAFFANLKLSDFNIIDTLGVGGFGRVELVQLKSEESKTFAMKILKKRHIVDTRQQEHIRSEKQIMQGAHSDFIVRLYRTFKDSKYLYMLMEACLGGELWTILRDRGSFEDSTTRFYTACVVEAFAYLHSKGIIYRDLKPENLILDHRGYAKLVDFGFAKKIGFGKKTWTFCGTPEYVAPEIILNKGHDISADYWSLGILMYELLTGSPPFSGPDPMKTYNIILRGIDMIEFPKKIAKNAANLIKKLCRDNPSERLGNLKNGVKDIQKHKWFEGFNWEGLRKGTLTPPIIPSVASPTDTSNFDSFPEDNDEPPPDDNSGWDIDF
# [53] = target: T2, cGMP-dependent protein kinase 1 (Homo sapiens); conditions: at 1 µM
# [54] = target: T2, cGMP-dependent protein kinase 1 (Homo sapiens); conditions: at 10 µM; remark: listed apart in the source
# [55] = target: MAP kinase-activated protein kinase 5 (Homo sapiens) (UniProt Q8IW41); conditions: at 1 µM
# [56] = target: Serine/threonine-protein kinase N2 (Homo sapiens) (UniProt Q16513); conditions: at 1 µM
# [57] = target: Tyrosine-protein kinase FRK (Homo sapiens) (UniProt P42685); conditions: at 1 µM
# [58] = target: Tyrosine-protein kinase FRK (Homo sapiens) (UniProt P42685); conditions: at 10 µM
# [59] = target: Serine/threonine-protein kinase pim-1 (Homo sapiens) (UniProt P11309); conditions: at 1 µM
# [60] = target: Serine/threonine-protein kinase pim-1 (Homo sapiens) (UniProt P11309); conditions: at 10 µM
# [61] = target: Serine/threonine-protein kinase pim-3 (Homo sapiens) (UniProt Q86V86); conditions: at 10 µM
# [62] = target: Receptor-interacting serine/threonine-protein kinase 2 (Homo sapiens) (UniProt O43353); conditions: at 1 µM
smiles,measurement,setting,value
O=C1c2ccccc2-c2nc3nnnn3nc21,residual activity,[1],110%
same,residual activity,[2],86%
same,residual activity,[3],89%
same,residual activity,[4],96%
same,residual activity,[5],90%
same,residual activity,[6],86%
same,residual activity,[7],89%
same,residual activity,[8],81%
same,residual activity,[9],86%
same,residual activity,[10],96%
same,residual activity,[11],97%
same,residual activity,[12],96%
same,residual activity,[13],84%
same,residual activity,[14],104%
same,residual activity,[15],84%
same,residual activity,[16],95%
same,residual activity,[17],85%
same,residual activity,[18],89%
same,residual activity,[19],84%
same,residual activity,[20],98%
same,residual activity,[21],102%
same,residual activity,[22],120%
same,residual activity,[23],95%
same,residual activity,[24],85%
same,residual activity,[25],95%
same,residual activity,[26],92%
same,residual activity,[27],99%
same,residual activity,[28],103%
same,residual activity,[29],92%
same,residual activity,[30],96%
same,residual activity,[31],126%
same,residual activity,[32],87%
same,residual activity,[33],87%
same,residual activity,[34],91%
same,residual activity,[35],89%
same,residual activity,[36],89%
same,residual activity,[37],98%
same,residual activity,[38],94%
same,residual activity,[39],92%
same,residual activity,[40],91%
same,residual activity,[41],93%
same,residual activity,[42],96%
same,residual activity,[43],99%
same,residual activity,[44],92%
same,residual activity,[45],96%
same,residual activity,[46],90%
same,residual activity,[47],86%
same,residual activity,[48],89%
same,residual activity,[49],99%
same,residual activity,[50],inactive: 99%
same,residual activity,[51],96%
same,residual activity,[52],101%
same,residual activity,[53],103%
same,residual activity,[54],96%
same,residual activity,[55],93%
same,residual activity,[56],94%
same,residual activity,[57],95%
same,residual activity,[58],84%
same,residual activity,[59],85%
same,residual activity,[60],82%
same,residual activity,[61],97%
same,residual activity,[62],101%
